Measurements published in article PMC8966664 (Frontiers in Pharmacology, 2022).

Experiments:
Type in all cases: in vivo, Sprague Dawley rats
[1] = Toxicokinetic study: plasma kinetics of RTS; details: rats; RTS 30 mg/kg oral alone (vehicle pre-dose)
Description: For the toxicokinetic study, jugular vein cannulation was performed on rats on the day before drug administration. The right jugular vein was cannulated with a polyethylene tube (0.4 mm i.d. × 0.8 mm o.d., SIMS Portex, United Kingdom) for blood sampling. The rats were maintained in individual metabolic cages and fasted overnight with free access to water. Rats were orally dosed with GA (50 mg/kg) or distilled water (<5 ml/kg) 2 hours prior to RTS (30 mg/kg). After RTS dosing, blood samples (about 0.2 ml/sample) were collected at 5, 10, 20, 40, 60, 120, 240, 360, 480, 720, and 1440 min and placed in heparinized tubes. Saline (0.2 ml) containing 25 units of heparin/mL was injected after each blood sampling for compensation of blood withdrawal. The blood samples were then centrifuged at 3,000 x g for 30 min, and plasma samples were harvested and stored at −20°C until use.
The pyrrole-protein adducts were measured according to our previously developed method ([Lin et al., 2011]; [Ruan et al., 2014]). Briefly, 50 mg liver or 100 µL serum/plasma was mixed with acetone and centrifuged at 900 x g for 10 min. The precipitated protein was treated with silver nitrate (20 mg/ml) in ethanol containing 5% trifluoroacetic acid to release pyrrole moiety from the pyrrole-protein adducts. After centrifugation, an aliquot of the supernatant was incubated with 4-dimethylaminobenzaldehyde (20 mg/ml) at 56°C for 10 min. The mixture was filtered and subjected to LC-MS/MS analysis. 7,9-diGS-DHP was used as a standard with a concentration ranging from 0.2 to 2000 nM and underwent the same preparation process to construct a calibration curve. To measure the concentration of RTS and 7,9-diGS-DHP, liver, serum, plasma samples, or the incubation mixture were mixed with five volumes of acetone (for liver samples) or three volumes of acetonitrile (for serum and plasma samples) to precipitate the proteins. After centrifuging at 20,000 x g for 30 min, the supernatants were collected and analyzed by LC-MS/MS according to our previously developed methods ([Ma et al., 2019]; [He et al., 2021a]; [Ma et al., 2021]).
The LC-MS/MS analysis was performed on an Agilent 6460 Triple Quadrupole LC/MS System using a Waters Acquity BEH C18 column (2.1 × 100 mm, […]). For the detection of pyrrole-protein adducts, the mobile phase of water containing 0.1% formic acid (A) and acetonitrile containing 0.1% formic acid (B) was used with a gradient elution as follows: 0–5 min, 35–95% B; 5.5–6 min, 95–35% B. The flow rate was 0.3 ml/min. The injection volume was 3 μL. […] The injection volume was 5 µL. The mass spectrometer was operated in multiple reactions monitoring for data acquisition. The multiple reaction monitoring (MRM) transitions, fragmentor, and collision energy for 7,9-diGS- RTS, RTS, and pyrrole-protein adducts are listed in Supplementary Table S1.
Data are expressed as mean ± SD. The Student’s t test was used for the comparison between two groups. The one-way ANOVA followed with a post hoc Bonferroni’s multiple comparison test was used for the comparison among multiple groups. Toxicokinetic parameters were calculated by noncompartmental methods using WinNonlin version 4.0 (Pharsight, Mountain View, CA, United States). The enzyme kinetic parameters were estimated from the best fit line using least-squares linear regression of the inverse substrate concentration versus the inverse velocity (Lineweaver-Burk plots), and the mean values were used to calculate the Km and Vmax. The inhibition constant (K i ) value of GA was determined by the secondary Lineweaver-Burk plots. The statistical significance was set as ^* p < 0.05, ^** p < 0.01 or ^*** p < 0.001.

[2] = tested on: RTS-induced liver injury; experiment: Serum ALT, hepatic MDA and GSH in RTS-induced liver injury; details: rats
Text: (§1) Rats were randomly divided into the following twelve groups: 1 and 2) Single- or Multiple-dose of distilled water groups (Vehicle), 3 and 4) Single-dose of RTS groups (RTS), 5 and 6) Single- or Multiple-dose of EX groups (SD-EX and MD-EX), 7 and 8) Single- or Multiple-dose of GA groups (SD-GA and MD-GA), 9) Single-dose of EX + RTS group (RTS-SD-EX), 10) Multiple-dose of EX + RTS group (RTS-MD-EX), 11) Single-dose of GA + RTS group (RTS-SD-GA), and 12) Multiple-dose of GA + RTS group (RTS-MD-GA). EX and GA were dissolved in distilled water at 37°C for oral administration with the dosage of EX and GA as 500 mg/kg and 50 mg/kg. RTS was dissolved in distilled water at room temperature to make the final concentration of 40 mg/kg. RTS was given following the last dose of distilled water/GA/EX. Detailed dosage regimens are described in Supplementary Figure S2. All rats were sacrificed at 48 h after the last dosing. Serum and liver samples were collected and stored at −80°C until use. The dose of RTS chosen for this study was based on our previous findings in that 40 mg/kg of RTS caused significant acute liver injury with moderate to severe SECs damage in male SD rats ([Chen et al., 2021]).
The serum alanine transaminase (ALT) level was measured by a kit obtained from Sigma-Aldrich Chemical Co. (St. Louis, MO, United States). The total bilirubin level was measured by the QuantiChromTM Bilirubin Assay kit according to the manufacturer’s instructions (BioAssay Systems, Hayward, CA, United States). Hepatic malondialdehyde (MDA) level was measured using a kit obtained from Nanjing Jiancheng Bioengineering Institute (Nanjing, China). Total GSH content in the liver was measured following a standard spectrophotometric method using Ellaman’s reagent.

[3] = tested on: sinusoidal endothelial cells; experiment: Immunofluorescence of RECA-1 in liver sections; details: rats; RTS alone
Text: as §1
The largest lobe of the rat liver was sliced, cold-embedded in Tissue-Tek OCT compound, and processed for immunohistochemistry according to the Abcam IHC frozen sections staining protocol. […]

[4] = tested on: RTS-induced liver damage; experiment: Histological examination (H&E) and scoring of liver damage, modified DeLeve's system; set-up: key to Sinusoidal hemorrhage / Coagulative necrosis / Apoptotic bodies / Subendothelial fibrosis / Sinusoid fibrosis: 0-absent; 1-mild; 2-moderate; 3-severe; details: rats
Text: as §1
The largest lobe of the liver was sliced, fixed in 10% buffered-neutral formalin for 24 h, and embedded in wax. Sections of 5 µm in thickness were subjected to hematoxylin and eosin staining before being examined. Liver injury (necrosis, endothelial cell damage, and hemorrhage) was evaluated with a LEICA DM5000B Microscope (Leica, Heidelberg, Germany).
Protective effects of EX and GA on RTS-induced hepatotoxicity were also evaluated by histopathological examination. […] The damage of sinusoidal endothelial cells was further measured by the immunofluorescence of RECA-1. […] The degrees of hemorrhage, sinusoidal dilation, and necrosis were assessed and scored (Table 2) according to a modified DeLeve’s system ([Deleve et al., 1999]) as summarized in Supplementary Table S3.

[5] = substance alone (EX/GA single and multiple administrations; RTS single dose), 48 h

retrorsine [RTS, reference compound]
AUC0→1440 of RTS in plasma [1]: 234.49 ± 34.07 µg·min/mL
Cl/F of RTS [1]: 28.18 ± 0.92 mL/min
Cmax of RTS in plasma [1]: 3188.07 ± 144.65 ng/mL
T1/2 of RTS [1]: 1.6707 ± 0.3275 h
Tmax of RTS in plasma [1]: 0.3333 ± 0 h
VZ/F of RTS [1]: 4058.24 ± 703.60 mL
hepatic GSH level increase ([2]; 48 h after RTS dosing, vs vehicle): 2.82 fold
hepatic MDA level compared with vehicle [2, 5]: elevated significantly
serum ALT level compared with vehicle [2, 5]: elevated significantly
sinusoids around central veins (RECA-1 immunofluorescence) [3]: markedly damaged
Apoptotic bodies ([4]; EX, GA or RTS alone): 1
Central vein endothelial damage ([4]; EX, GA or RTS alone): 2-3
Coagulative necrosis ([4]; EX, GA or RTS alone): 2
Overall (sum of the scores from all individual parameters) ([4]; EX, GA or RTS alone): 11-14
Sinusoid fibrosis ([4]; EX, GA or RTS alone): 0
Sinusoidal dilation ([4]; EX, GA or RTS alone): 2-3
Sinusoidal hemorrhage ([4]; EX, GA or RTS alone): 2
Subendothelial fibrosis ([4]; EX, GA or RTS alone): 0
Subendothelial hemorrhage ([4]; EX, GA or RTS alone): 2-3
histopathological examination of liver ([4]; substance alone): severe hepatotoxicity
